Measurements: the kinase profiling compilation of Christmann-Franck et al. (2016)

By UniProt entry, the sequences of proteins in these tests, tags left out. Where a name states a change or a piece, a line headed by the entry shows the natural chain unless it says otherwise.
UniProt Q8IYT8: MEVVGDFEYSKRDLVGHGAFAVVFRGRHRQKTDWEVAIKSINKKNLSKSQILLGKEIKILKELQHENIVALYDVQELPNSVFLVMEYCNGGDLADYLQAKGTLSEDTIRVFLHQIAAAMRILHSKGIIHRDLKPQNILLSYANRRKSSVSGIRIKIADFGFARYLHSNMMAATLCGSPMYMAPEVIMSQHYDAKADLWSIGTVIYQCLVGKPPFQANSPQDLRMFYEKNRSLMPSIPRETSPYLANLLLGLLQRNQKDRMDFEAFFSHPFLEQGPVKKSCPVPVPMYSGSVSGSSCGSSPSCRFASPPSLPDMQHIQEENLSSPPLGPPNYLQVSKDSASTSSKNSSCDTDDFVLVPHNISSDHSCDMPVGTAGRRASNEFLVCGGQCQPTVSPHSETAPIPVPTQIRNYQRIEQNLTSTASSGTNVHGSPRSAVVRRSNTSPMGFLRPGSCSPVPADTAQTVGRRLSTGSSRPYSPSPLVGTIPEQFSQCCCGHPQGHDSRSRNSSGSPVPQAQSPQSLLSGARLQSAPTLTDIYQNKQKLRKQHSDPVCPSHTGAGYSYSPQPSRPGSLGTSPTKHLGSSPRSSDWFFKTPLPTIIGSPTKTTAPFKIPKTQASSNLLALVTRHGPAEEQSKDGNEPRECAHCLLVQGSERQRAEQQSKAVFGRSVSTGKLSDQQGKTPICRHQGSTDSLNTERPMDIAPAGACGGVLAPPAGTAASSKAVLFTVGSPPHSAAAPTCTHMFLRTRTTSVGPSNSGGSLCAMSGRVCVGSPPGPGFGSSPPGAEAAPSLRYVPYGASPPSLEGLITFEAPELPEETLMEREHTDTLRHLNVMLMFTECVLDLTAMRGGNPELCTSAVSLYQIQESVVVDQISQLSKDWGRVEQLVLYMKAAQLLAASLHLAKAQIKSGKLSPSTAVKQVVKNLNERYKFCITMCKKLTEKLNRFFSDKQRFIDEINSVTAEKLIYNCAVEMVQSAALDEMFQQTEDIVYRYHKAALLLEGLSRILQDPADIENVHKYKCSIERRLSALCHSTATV
UniProt Q9UIK4: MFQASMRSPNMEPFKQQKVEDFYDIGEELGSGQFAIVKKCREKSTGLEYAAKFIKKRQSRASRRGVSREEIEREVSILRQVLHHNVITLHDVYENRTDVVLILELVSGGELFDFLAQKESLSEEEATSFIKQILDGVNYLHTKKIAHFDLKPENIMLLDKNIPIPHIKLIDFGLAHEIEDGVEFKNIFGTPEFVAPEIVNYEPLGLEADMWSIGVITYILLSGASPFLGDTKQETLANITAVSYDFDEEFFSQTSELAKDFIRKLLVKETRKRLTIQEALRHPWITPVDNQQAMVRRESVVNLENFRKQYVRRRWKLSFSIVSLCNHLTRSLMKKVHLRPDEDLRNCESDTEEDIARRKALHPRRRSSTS

Experiments:
[1] = molecular target: ULK2 (human) (UniProt Q8IYT8); test: radiometric filter-binding kinase assay, Kinase HotSpot; settings: compound 0.5 µM; ATP 10 µM
[2] = molecular target: DAPK2 (human) (UniProt Q9UIK4); test: as above; settings: compound 0.5 µM; ATP 10 µM

| Structure (SMILES) | residual activity [1] | residual activity [2] |
| --- | --- | --- |
| O=c1[nH]c2ccccc2n1C1CCN(Cc2ccc(-c3nc4cc5[nH]cnc5cc4nc3-c3ccccc3)cc2)CC1 | 106% |  |
| Cn1cc(/C=C2\C(=O)Nc3ccc(S(N)(=O)=O)cc32)c2ccccc21 |  | 94% |
